# Experimental data from patent US8470841B2, “Heterocyclic compounds, processes for their preparation, medicaments comprising these compounds, and the use thereof” (Sanofi, priority 2008, dated 2013).
# Biological target: human ACC1 (Homo sapiens (Human), UniProt Q13085)
# Assay: Enzymatic luminometric assay of ACC inhibitors, human ACC1
# Details: read-out: IC50 hACC (human ACC1), table row printed as hACC
smiles,measurement,value
"CC(=O)N[C@@H](C)COc1ccc(Oc2ccc(OC(C)C)cc2)cc1 [Example 59, N—{(S)-2-[4-(4-Isopropoxyphenoxy)phenoxy]-1-methylethyl}acetamide, reference compound]",IC50,7.8 µM
